Results published in patent publication US10669268B2, “Bicyclic derivatives” (Hoffmann-La Roche Inc., priority 2012, dated 2020).

Molecular target: ATX (human His-tagged) (Homo sapiens (Human), UniProt Q13822)
Experiment: Human ATX enzyme inhibition assay (fluorescence quenching, MR121 substrate)
Format: biochemical
Conditions: 30 nM ATX, 1 μM MR121 substrate, 30° C., pH 8.0

| pIC50 | Structure (SMILES) |
| --- | --- |
| 8.52 | O=C(/C=C/c1ccc(OC(F)(F)F)cc1)N1C[C@@H]2CN(C(=O)N3CCc4[nH]nnc4C3)C[C@H]2C1 |
| 8.15 | O=C(CCc1ccc(OC(F)(F)F)cc1)N1C[C@@H]2CN(C(=O)[C@@H]3CCc4[nH]nnc4C3)C[C@H]2C1 |
| 7.41 | O=C(/C=C/c1ccc(OC(F)(F)F)cc1)N1C[C@@H]2CN(C(=O)N3CCc4[nH]nnc4C3)C[C@@H]2C1 |

| Structure (SMILES) | pIC50 |
| --- | --- |
| O=C(CCc1ccc(OC(F)(F)F)cc1)N1C[C@@H]2CN(C(=O)N3CCc4[nH]nnc4C3)C[C@H]2C1 | 8.15 |

pIC50: −log10 of the molar value.
